Test system: SARS-CoV-2
Conditions: Severe acute respiratory syndrome coronavirus 2, Vero C1008, read-out: 50% inhibitory concentration in cytopathic effect reduction assay (EC50)

SMILES | EC50
CC(C)NC[C@@H](O)COc1cccc2ccccc12 [R-propranolol, (R)-(+)-1-(isopropylamino)-3-(naphthalen-1-yloxy)propan-2-ol] | 12.2 µM
CC(C)NC[C@H](O)COc1cccc2ccccc12 [S-propranolol, (S)-(−)-1-(isopropylamino)-3-(naphthalen-1-yloxy)propan-2-ol] | 15.3 µM

Source: patent US20240358659A1, “Uses of Propranolol for Managing Viral Infections” (Emory University, priority 2021, published 2024)
